# Results from PubChem BioAssay AID588852 (The Scripps Research Institute Molecular Screening Center, 2011).
# Protein sequences, listed by entry. Tags and fused reporters are not part of them.
# UniProt P11229, whole entry: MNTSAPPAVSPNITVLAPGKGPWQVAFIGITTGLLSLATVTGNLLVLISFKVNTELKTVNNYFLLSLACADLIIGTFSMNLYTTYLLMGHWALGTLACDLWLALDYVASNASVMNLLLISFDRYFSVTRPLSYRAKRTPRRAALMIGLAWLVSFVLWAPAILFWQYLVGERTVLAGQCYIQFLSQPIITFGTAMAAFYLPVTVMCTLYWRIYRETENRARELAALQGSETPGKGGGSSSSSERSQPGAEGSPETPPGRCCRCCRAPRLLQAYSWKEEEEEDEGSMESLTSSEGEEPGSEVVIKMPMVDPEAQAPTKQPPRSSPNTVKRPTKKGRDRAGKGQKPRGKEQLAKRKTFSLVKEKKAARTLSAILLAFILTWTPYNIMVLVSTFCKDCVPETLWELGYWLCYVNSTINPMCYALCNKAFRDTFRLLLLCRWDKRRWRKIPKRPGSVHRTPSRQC
# The list shows a part of the results, in another mix than the full data. Active and inactive are the calls of the source.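 Rule for the calls: active = percent inhibition above its own plate's cutoff, namely the mean of that plate's compound wells plus 3 SD; inactive = the rest.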
# Molecular target: Muscarinic acetylcholine receptor M1 (Homo sapiens) (UniProt P11229)
# Experiment: human M1 muscarinic receptor antagonists, primary screen, CHO-K1 cells, Fluo-8 calcium fluorescence, 1536-well (AID 588852);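 note: peak over basal fluorescence ratio during 140 s after agonist addition; 0% = ACh EC80 plus DMSO and 100% = DMSO alone without agonist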
# Settings: CHO-K1 hM1, Fluo-8 calcium fluorescence, ACh EC80 antagonist; at 3 µM; stronger effect = higher value
row,SMILES,inhibition
1,O=P(Nc1nc2ccccc2s1)(c1ccccc1)c1ccccc1,inactive: 19.3%
